Converted amounts (≈) assume the structure as drawn. Where two headings read alike, the source gives them in different places.
Experiments:
[1] = test system: Ca^2+ currents in HIG-82 cells
[2] = test system: Ca^2+ currents in HIG-82 cells; test: cells; conditions: read-out: EC50, inhibition of calcium current

Compound: COc1ccc([C@@H]2Sc3ccccc3N(CCN(C)C)C(=O)[C@@H]2OC(C)=O)cc1 [diltiazem]
- block of calcium current ([1]; membrane potential 0 mV, added separately): blocked the current almost completely
- block of calcium current ([1]; membrane potential −50 mV, single blocker 100 μM): neither verapamil nor diltiazem could block the current completely
- EC50 [2]: 12.8 µg/mL (≈ 30.9 µM)

From US20120309709A1, “Ion-Channel Regulator Compositions and Methods of Using Same” (priority 2007, published 2012)
